# scFv variants of Ab-14 (heavy chain) against a SARS-CoV-2 spike peptide

The measurements come from Li et al. 2023 (doi:10.1038/s41467-023-39022-2) through the FLAb antibody collection.

Antigen: PDVDLGDISGINAS, a 14-residue peptide of the SARS-CoV-2 spike HR2 region.

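These sequences belong to a second round, designed from the earlier measurements on random variants of the parent. Group labels follow the data file (Ctrl: baseline library sampled from a position-specific scoring matrix, with some repeated check sequences; En: ensemble of fine-tuned language models; GP: Gaussian process model; GPLM: also part of the Gaussian process libraries; HC: hill climbing; Gen: genetic algorithm; Gibbs: Gibbs sampling; a sequence that several methods proposed may carry one label only). The assay is AlphaSeq: two haploid yeast populations carry antibody and antigen on their surface. After mating in shaken culture at 30 °C for 16 h, diploids were selected and their barcode pairs sequenced. The ratio of observed to expected reads was calibrated, replicate by replicate, on BCL2-family standards whose Kd was known from biolayer interferometry. The assay was run in six technical replicates.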

Parent scFv Ab-14: VH joined to VL by three GGGGS repeats. Changes lie in the heavy chain CDRs alone.
VH: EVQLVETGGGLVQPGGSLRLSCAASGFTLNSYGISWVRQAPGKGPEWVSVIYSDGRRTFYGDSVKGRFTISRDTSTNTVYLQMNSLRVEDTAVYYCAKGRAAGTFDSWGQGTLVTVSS
VL: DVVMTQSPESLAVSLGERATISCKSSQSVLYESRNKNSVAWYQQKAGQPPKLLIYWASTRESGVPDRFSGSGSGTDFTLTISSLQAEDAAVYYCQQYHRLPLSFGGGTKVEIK

Variants are written as CDR1, CDR2 and CDR3 of the heavy chain (limits as in the source). Parent: GFTLNSYGIS, VIYSDGRRTFYGDSVK, GRAAGTFDS.
Variants here have at most six changes.
Numbers give log10(Kd / nM), so 0 is 1 nM and 3 is 1 µM. Smaller is tighter.
"nd" marks a missing value. The strain was present, yet no cells mated with the target were sequenced in that replicate, which points to weak or no binding.
As a blank, each scFv also met three strains without target: over all heavy chain designs, 1% of these pairings were detected, typically at 2.08 and seldom below 0.84. The control count says in how many pairings with the empty strains this scFv gave a signal, with their mean in brackets.
The parent sequence was in this pool as ten entries: three were never detected, three once, and four in most replicates, with averages from 0.34 to 2.37.
The authors' rule: three or more of the six replicates give a measured affinity, fewer mean a poor binder.
Some sequences occur more than once in the pool; their replicates are listed entry by entry, parted by semicolons.
The range of this assay differs from that of the first round, and the authors advise against merging the two.

CDR-H1	CDR-H2	CDR-H3	group	replicates, log10 nM	control signals
GFELNSYGIS	VIYSDGRRTFYDDSVK	GQVAGTFDS	GP_HC	0.40 / 1.06 / 0.19 / 0.23 / 0.16 / 0.41	1 of 18 (2.35)
GFTLDSYGIS	VIYSDGRRTFYGDSVK	GTAAGTVDS	Ctrl	nd / nd / nd / nd / nd / nd	0 of 18
GFTLNSYGIS	VIYSDGRRTFYGDSVR	QRAAGTFDS	Ctrl	nd / nd / nd / nd / nd / nd	0 of 18
GFTLNSYGIS	VIYSDGRRTFYGDTVK	GRAAGRFRS	Ctrl	nd / nd / nd / nd / nd / nd	0 of 18
GFELNSYGIS	VIYADGRRTQYGDSVK	GRHPGTFDS	Ctrl	-0.34 / 1.45 / nd / 0.75 / 0.72 / 0.75	0 of 18
GFTLNSYGIS	VIYSDGRRTFYTDDVK	GEAAGTFES	GP_HC	nd / 2.27 / 1.65 / 1.37 / 2.53 / 2.32	0 of 18
GFHLNSYGIS	VIYSDGRRTFYSDSVK	GRAACTFDS	Ctrl	nd / nd / nd / nd / nd / nd	0 of 18
GFDLNEYGIS	VIYADGRRTFYTDSVK	GEAAGTFDQ	En_HC	2.97 / nd / nd / nd / nd / nd	0 of 18
GFTLNSYGIS	VIYSDGQRTFYADSVK	GRVAGTFDL	GPLM_Gibbs	1.09 / 0.71 / 0.56 / -0.28 / 0.42 / 0.36	0 of 18
GFTLNDYGIS	VIYSDGRRTFYADSVK	GKAAGTFIS	GP_HC	nd / nd / nd / nd / nd / nd	0 of 18
GFSLNNYGIS	VIYSDGRRTFYGDSVK	GKAAGTGPS	Ctrl	nd / nd / nd / nd / nd / nd	0 of 18
GFTLNSYGIS	VIYSDGRRTFYGDSVK	GMAAGTFDG	Ctrl	nd / nd / nd / nd / nd / nd	0 of 18
KFTLNSYGIS	VIYSDGRRTFYGDSVK	GRAADTFDS	Ctrl	nd / nd / nd / nd / nd / nd	0 of 18
GFSLNDYGIS	VIYSDGRRTFYGDSVK	GRAALTFDN	GP_HC	nd / nd / nd / nd / nd / nd	0 of 18
HFTLNDYGIS	VIYSDGRRTMYIDSVK	GRAAGTFDS	GP_HC	nd / nd / nd / nd / nd / nd	0 of 18
GFQLNDYGIS	VIYSDGRRTFYHDSVK	GRAAGTFDS	GP_HC	0.44 / 0.82 / 1.04 / 0.55 / 0.51 / 0.92	0 of 18
QFTLNSYGIS	VMYSDGRRTSYIDSVK	GRAPGTFDS	Ctrl	nd / nd / nd / 1.90 / nd / 2.25	0 of 18
HFTLNEYGIS	VIYSDGRRTFYGDSVK	GRTAGTFDS	GPLM_Gen	1.16 / 0.98 / 0.69 / nd / 1.60 / 1.37	0 of 18
GFDLNEYGIS	VIYADGRRTFYADSVK	GQAAGTFDQ	En_HC	-0.22 / -0.27 / -0.47 / -0.40 / -0.10 / -0.12	0 of 18
GFDLNSYGIS	VIYSDGRRTFYGDRVK	GRTAGTFDD	GP_Gen	1.51 / 1.64 / 1.30 / 0.84 / 1.39 / 1.44	0 of 18
GFTLNDYGIS	VIYSDGRRTFYDDSVK	GRAAGTFES	GP_HC	0.67 / 2.53 / nd / 1.35 / nd / nd	0 of 18
GFELNSYGIS	VIYSDGRRTFYGDDVK	GNTAGTFDS	GP_Gibbs	1.07 / nd / -0.53 / -1.59 / nd / nd	0 of 18
GFELNSYGIS	VIYSDGRRTFYADSVK	GKTAGTFDA	GP_Gibbs	0.68 / 0.45 / 0.26 / 0.42 / 0.44 / 0.84	2 of 18 (2.54)
GFTLDSYGIS	VIYSDGRRTWYGDSVK	GRAAGTFDS	Ctrl	nd / 2.08 / 1.54 / 3.56 / 1.60 / 1.71	0 of 18
GFTRNSYGIS	VIYSDGRRTIYGDSVK	GRAAGTFDS	Ctrl	nd / nd / nd / nd / nd / nd	0 of 18
GFTLNMYGIS	VIYSDGYRTFYGDSVK	GRAAGTFDV	Ctrl	nd / nd / 3.12 / nd / nd / 1.53	2 of 18 (1.91)
GFDLNEYGIS	VIYADGRRTFYVDSVK	GQNAGTFDS	En_HC	0.27 / -0.41 / -0.49 / 1.61 / -0.74 / -1.01	0 of 18
GFTLNEYGIS	VIYSDGRRTFYQDSVK	GRTAGTFDS	GPLM_HC	nd / nd / -0.34 / 0.81 / -0.05 / nd	0 of 18
GFSLNEYGIS	VIYSDGRRTFYKDSVK	GQAAGTFDS	GP_Gen	0.13 / 0.75 / -0.30 / 0.39 / -0.58 / 0.54	0 of 18
GFSLESYGIS	VIYSDGRRTFYGDSVK	GRAYGTFDS	Ctrl	nd / nd / nd / nd / nd / nd	0 of 18
MFDLNSYGIS	VIYSDGRRTFYIDSVK	GEAAGTFDS	GP_Gen	nd / nd / nd / nd / 0.12 / nd	0 of 18
GFTLNEYGIS	VIYSDGRRTFYTDRVK	GEAAGTFDK	GP_HC	0.90 / 1.52 / 1.25 / 0.50 / 0.52 / 0.84	0 of 18
GFTLNSYGRS	VIYSDGRRTFYDDSVK	GKAAGTFDS	Ctrl	nd / nd / nd / nd / nd / nd	0 of 18
GFTLNSYGIS	VIYSDGRRTFYSDSVK	GHVAGTFDS	GP_HC	1.08 / 0.70 / 0.47 / -0.26 / 0.15 / 0.07	0 of 18
GFNLNEYGIS	VIYADGRRTFYADSVK	GEAAGTFDT	En_HC	0.36 / 0.14 / 0.23 / 0.11 / 0.52 / 0.43	0 of 18
EFTLNKYGIS	VIYSDGRRTAYGDSVK	GSAAITFDA	Ctrl	nd / nd / nd / nd / nd / nd	0 of 18
GFTLNEYGIS	VIYSDGRRTFYSDSVK	GNAAGTFDS	Ctrl	1.05 / 0.32 / 1.01 / -0.08 / 0.16 / 0.90	0 of 18
GFTLASYGIS	VIYSDGRRTAYGDQVK	GKAAGTFDS	Ctrl	1.50 / 2.48 / 0.78 / 2.11 / 1.55 / nd	0 of 18
GFTLNSYGIS	VIYSDGRRTFYGDSVK	GTEAGTFDS	Ctrl+GP_Gibbs	-0.12 / 1.04 / -0.29 / -0.73 / 0.83 / 0.11; 1.39 / nd / nd / 1.18 / 1.05 / 1.65	0 of 36
GFHLNQYGIS	VIYSDGRRTFYADSVK	GRAAGTFDS	GPLM_HC	0.96 / 0.49 / 1.02 / 1.12 / 1.01 / 0.93	0 of 18
GFDLNMYGIS	VIYSDGRRTFYIDSVK	GNAAGTFDS	GP_Gibbs	0.23 / -0.01 / 0.03 / -0.29 / -0.22 / 0.11	4 of 18 (2.86)
GFSLNSYGIS	VIYSDGRRTFYKDSVK	GNEAGTFDS	GP_Gibbs	-0.08 / -0.77 / -0.20 / 0.14 / -0.47 / 0.00	0 of 18
GFDLNSYGIS	VIYSDGRRTAYHDSVK	GRAAGTFDS	GP_HC	0.07 / -0.37 / -0.03 / 0.08 / 0.09 / 0.04	0 of 18
GFNLNSYGIS	VIYSDGRRTFYKDSVK	GQTAGTFDS	GPLM_Gen	0.59 / 0.13 / 0.39 / 0.04 / 0.19 / 0.40	2 of 18 (2.44)
GFTLNEYGIS	VIYSDGRRTFYGDSVK	GQEAGTFDT	GPLM_Gen	-0.03 / -0.25 / 0.15 / -0.23 / 0.08 / 0.29	0 of 18
GFTLNSYGIS	VIYSDGRRTFYGDSVK	GREALTFSS	Ctrl	nd / nd / nd / nd / nd / nd; nd / nd / nd / nd / nd / nd; nd / nd / nd / nd / nd / nd; nd / nd / nd / nd / nd / nd	0 of 72
GFVLNEYGIS	VIYSDGRRTFYVDSVK	GKAAGTFDS	GP_Gibbs	1.77 / 0.48 / 0.28 / 0.89 / 0.75 / 0.34	0 of 18
GFNLNSYGIS	VIYSDGRRTFYIDSVK	GRVAGTFDS	GPLM_Gibbs	nd / nd / -1.39 / nd / nd / -0.45	0 of 18

Repeated from above, the 7 best binders with a signal in all replicates:

| CDR-H1 | CDR-H2 | CDR-H3 | group | replicates, log10 nM | control signals |
|---|---|---|---|---|---|
| GFDLNEYGIS | VIYADGRRTFYADSVK | GQAAGTFDQ | En_HC | -0.22 / -0.27 / -0.47 / -0.40 / -0.10 / -0.12 | 0 of 18 |
| GFSLNSYGIS | VIYSDGRRTFYKDSVK | GNEAGTFDS | GP_Gibbs | -0.08 / -0.77 / -0.20 / 0.14 / -0.47 / 0.00 | 0 of 18 |
| GFDLNEYGIS | VIYADGRRTFYVDSVK | GQNAGTFDS | En_HC | 0.27 / -0.41 / -0.49 / 1.61 / -0.74 / -1.01 | 0 of 18 |
| GFDLNMYGIS | VIYSDGRRTFYIDSVK | GNAAGTFDS | GP_Gibbs | 0.23 / -0.01 / 0.03 / -0.29 / -0.22 / 0.11 | 4 of 18 (2.86) |
| GFDLNSYGIS | VIYSDGRRTAYHDSVK | GRAAGTFDS | GP_HC | 0.07 / -0.37 / -0.03 / 0.08 / 0.09 / 0.04 | 0 of 18 |
| GFTLNEYGIS | VIYSDGRRTFYGDSVK | GQEAGTFDT | GPLM_Gen | -0.03 / -0.25 / 0.15 / -0.23 / 0.08 / 0.29 | 0 of 18 |
| GFSLNEYGIS | VIYSDGRRTFYKDSVK | GQAAGTFDS | GP_Gen | 0.13 / 0.75 / -0.30 / 0.39 / -0.58 / 0.54 | 0 of 18 |